Experimental data as given in PMC3849266, “In Vitro and In Vivo Evaluation of a ^18F-Labeled High Affinity NOTA Conjugated Bombesin Antagonist as a PET Ligand for GRPR-Targeted Tumor Imaging” (PLoS ONE, 2013).

Amino acid sequences for entries named in this document (tags omitted). A change or cut given only in a name is not applied to a line headed by its entry.
UniProt P30550: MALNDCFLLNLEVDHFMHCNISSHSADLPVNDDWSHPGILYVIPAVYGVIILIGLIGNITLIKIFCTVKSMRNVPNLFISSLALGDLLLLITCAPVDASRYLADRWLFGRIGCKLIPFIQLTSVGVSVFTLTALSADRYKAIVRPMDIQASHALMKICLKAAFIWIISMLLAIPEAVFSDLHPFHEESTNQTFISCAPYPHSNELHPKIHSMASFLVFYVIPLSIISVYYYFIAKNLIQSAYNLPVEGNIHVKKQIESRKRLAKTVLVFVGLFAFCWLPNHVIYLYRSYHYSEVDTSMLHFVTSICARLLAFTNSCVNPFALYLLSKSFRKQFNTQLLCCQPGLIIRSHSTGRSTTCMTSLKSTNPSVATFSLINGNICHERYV

Molecular target: T1, GRPR (Homo sapiens, UniProt P30550)
T1 construct: PC-3 human prostate cancer cells (ATCC, LGC Standards AB) expressing GRPR; host or cells: PC-3 human prostate cancer cells
Experiment: In vitro competitive binding assay: displacement of 125I-Tyr4-BBN on PC-3 cells
Conditions: 3 h at 4 °C, read-out: IC50 (inhibition of 125I-Tyr4-BBN binding)

^natGa-NOTA-P2-RM26: NOTA-P2-RM26 loaded with stable gallium
IC50: 3.5 ± 0.5 nM
